Measurements taken from patent EP2181998B1, “New benzothiazinone derivative and its use as antibacterial agent” (priority 2006, dated 2007).
In brackets after ≈: the same amount, converted by molar mass.

Experiments:
[1] = system: M. vaccae IMET 10 10670; assay type: cell-based; conditions: Mycolicibacterium vaccae, IMET1010670, read-out: MIC M.vaccae
[2] = system: Mycobacterium smegmatis SG 987; assay type: cell-based; conditions: Mycolicibacterium smegmatis, SG987, read-out: MIC M. smegmatis

For CCOC1(OCC)CCN(c2nc(=O)c3cc([N+](=O)[O-])cc([N+](=O)[O-])c3s2)CC1 [Compound 6, 2-(4,4-diethoxypiperidin-l-yl)-6,8-dinitro-1,3-benzothiazin-4-one], the MIC [1] was 0.04 µg/mL (≈ 0.0942 µM) and the MIC [2] was > 10 µg/mL.
